Results from ChEMBL document CHEMBL5338706, “Discovery of a potent and selective proteolysis targeting chimera (PROTAC) degrader of NSD3 histone methyltransferase” (Eur J Med Chem, 2022).

The chains behind the UniProt entries cited, without tags or fusion partners. Where a name states a change or a piece, a line headed by the entry shows the natural chain unless it says otherwise.
UniProt Q96L73: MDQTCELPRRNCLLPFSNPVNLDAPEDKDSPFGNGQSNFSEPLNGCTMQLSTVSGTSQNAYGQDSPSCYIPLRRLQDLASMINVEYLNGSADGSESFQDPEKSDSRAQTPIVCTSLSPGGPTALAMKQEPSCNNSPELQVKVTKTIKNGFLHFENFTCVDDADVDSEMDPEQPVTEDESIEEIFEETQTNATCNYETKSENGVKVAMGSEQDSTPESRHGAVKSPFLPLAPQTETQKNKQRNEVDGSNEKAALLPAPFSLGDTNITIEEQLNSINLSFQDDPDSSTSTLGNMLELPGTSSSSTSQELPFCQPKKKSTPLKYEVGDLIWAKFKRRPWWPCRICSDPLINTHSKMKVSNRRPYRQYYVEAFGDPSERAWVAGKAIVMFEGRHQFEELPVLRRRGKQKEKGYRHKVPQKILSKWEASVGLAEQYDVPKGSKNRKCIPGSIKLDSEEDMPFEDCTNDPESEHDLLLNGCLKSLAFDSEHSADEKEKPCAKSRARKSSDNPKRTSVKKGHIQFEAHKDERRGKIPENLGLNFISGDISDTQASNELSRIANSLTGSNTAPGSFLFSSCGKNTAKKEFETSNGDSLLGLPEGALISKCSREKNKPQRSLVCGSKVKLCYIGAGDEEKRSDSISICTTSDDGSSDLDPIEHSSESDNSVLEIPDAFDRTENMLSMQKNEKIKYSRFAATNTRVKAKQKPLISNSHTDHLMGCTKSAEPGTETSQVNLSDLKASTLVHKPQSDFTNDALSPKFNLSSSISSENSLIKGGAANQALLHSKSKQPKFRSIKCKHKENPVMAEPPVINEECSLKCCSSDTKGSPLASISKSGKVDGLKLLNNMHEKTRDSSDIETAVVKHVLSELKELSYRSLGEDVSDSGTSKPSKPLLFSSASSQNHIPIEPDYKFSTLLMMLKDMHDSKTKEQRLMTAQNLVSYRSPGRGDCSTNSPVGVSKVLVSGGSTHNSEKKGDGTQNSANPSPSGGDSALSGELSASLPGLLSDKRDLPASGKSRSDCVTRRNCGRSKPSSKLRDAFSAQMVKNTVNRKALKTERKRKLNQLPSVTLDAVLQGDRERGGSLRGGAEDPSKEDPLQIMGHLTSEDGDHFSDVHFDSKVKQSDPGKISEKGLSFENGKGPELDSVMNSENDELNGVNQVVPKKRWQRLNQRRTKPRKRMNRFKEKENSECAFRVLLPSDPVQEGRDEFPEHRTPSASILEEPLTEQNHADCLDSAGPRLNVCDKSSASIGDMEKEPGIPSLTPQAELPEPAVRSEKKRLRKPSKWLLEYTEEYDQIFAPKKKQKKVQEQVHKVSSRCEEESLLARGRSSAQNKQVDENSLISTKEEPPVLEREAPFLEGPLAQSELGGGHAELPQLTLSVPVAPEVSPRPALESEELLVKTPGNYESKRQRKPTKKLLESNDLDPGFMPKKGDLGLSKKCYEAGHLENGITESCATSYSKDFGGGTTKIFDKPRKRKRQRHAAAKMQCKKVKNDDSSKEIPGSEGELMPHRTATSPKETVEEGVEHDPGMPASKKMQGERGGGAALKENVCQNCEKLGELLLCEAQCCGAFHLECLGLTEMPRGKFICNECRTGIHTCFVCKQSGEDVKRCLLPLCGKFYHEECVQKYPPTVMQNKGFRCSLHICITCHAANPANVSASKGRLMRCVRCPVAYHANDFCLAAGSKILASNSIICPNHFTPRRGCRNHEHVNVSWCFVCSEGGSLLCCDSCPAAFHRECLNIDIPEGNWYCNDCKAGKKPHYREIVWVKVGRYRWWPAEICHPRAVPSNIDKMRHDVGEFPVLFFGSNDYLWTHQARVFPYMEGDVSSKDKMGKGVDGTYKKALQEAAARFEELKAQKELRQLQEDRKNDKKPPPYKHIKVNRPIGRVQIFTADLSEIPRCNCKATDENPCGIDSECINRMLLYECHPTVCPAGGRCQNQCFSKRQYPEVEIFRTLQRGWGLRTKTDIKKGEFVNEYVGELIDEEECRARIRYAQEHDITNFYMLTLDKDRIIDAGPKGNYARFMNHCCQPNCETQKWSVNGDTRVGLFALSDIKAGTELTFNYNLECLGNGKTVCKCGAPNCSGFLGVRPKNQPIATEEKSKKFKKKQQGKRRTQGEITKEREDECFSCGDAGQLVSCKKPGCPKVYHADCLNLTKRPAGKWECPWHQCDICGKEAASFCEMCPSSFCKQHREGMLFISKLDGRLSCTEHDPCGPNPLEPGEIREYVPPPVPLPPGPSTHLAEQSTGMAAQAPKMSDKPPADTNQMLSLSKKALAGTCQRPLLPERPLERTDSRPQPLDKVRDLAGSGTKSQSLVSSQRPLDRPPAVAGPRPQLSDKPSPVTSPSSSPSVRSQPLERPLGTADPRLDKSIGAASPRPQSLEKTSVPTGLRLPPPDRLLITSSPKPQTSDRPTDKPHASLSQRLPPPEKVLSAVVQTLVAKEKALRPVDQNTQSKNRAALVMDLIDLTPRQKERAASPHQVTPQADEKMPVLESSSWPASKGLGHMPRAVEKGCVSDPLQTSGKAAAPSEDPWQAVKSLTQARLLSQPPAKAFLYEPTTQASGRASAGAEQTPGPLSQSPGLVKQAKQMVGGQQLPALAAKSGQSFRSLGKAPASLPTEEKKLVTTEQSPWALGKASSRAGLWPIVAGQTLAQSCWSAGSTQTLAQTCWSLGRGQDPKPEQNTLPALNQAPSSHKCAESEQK

How the values were obtained:
Assay type in all cases: cell-based
[1] = molecular target: Histone-lysine N-methyltransferase, H3 lysine-36 specific (Homo sapiens) (UniProt Q96L73); experiment: Induction of NSD1 degradation in human A549 cells at 5 uM incubated for 72 hrs by measuring fold change by Western blot analysis relative to control
[2] = molecular target: T1, Histone-lysine N-methyltransferase NSD3 (Homo sapiens) (UniProt Q9BZ95); experiment: Induction of NSD3 degradation in human NCI-H1703 cells assessed as reduction in H3K36me3 methylation at 5 uM incubated for 72 hrs by measuring fold change by Western blot analysis relative to control
T1 sequence (whole entry): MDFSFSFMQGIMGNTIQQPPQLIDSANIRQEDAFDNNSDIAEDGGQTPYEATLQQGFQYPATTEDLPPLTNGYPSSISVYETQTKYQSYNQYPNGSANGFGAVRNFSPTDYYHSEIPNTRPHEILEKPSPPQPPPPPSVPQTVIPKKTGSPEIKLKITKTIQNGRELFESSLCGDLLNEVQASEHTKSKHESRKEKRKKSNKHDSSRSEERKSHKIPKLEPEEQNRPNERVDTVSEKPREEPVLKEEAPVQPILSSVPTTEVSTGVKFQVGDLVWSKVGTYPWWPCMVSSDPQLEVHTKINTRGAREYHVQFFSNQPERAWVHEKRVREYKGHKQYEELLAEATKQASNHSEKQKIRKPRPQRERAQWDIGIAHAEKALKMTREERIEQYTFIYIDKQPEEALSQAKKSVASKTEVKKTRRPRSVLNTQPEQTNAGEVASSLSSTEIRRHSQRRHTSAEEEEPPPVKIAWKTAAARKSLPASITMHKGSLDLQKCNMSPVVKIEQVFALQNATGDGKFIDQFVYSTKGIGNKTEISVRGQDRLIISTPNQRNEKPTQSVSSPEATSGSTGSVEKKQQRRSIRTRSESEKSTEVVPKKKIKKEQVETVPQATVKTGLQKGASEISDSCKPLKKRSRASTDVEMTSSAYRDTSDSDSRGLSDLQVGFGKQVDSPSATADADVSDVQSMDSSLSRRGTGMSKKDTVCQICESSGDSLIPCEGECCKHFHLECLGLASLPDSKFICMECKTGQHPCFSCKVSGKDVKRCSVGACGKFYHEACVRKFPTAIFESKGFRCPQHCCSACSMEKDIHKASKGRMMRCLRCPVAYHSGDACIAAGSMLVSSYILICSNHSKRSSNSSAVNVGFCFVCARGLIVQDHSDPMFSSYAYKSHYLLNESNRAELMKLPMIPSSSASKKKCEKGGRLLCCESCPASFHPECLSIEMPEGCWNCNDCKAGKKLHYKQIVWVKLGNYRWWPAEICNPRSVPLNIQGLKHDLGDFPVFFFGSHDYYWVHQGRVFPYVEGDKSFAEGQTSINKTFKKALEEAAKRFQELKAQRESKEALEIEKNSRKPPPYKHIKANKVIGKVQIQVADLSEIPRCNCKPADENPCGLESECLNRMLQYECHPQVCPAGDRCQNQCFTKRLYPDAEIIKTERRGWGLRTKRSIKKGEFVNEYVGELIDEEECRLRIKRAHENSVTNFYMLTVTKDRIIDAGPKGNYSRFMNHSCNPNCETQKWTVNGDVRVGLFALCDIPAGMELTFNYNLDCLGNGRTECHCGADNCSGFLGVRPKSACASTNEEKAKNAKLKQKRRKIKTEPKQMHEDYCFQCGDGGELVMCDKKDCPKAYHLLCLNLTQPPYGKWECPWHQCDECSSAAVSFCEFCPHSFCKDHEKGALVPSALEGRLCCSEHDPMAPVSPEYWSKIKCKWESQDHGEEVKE

[3] = molecular target: T1, Histone-lysine N-methyltransferase NSD3 (Homo sapiens); experiment: Induction of NSD3 degradation in human A549 cells at 5 uM incubated for 72 hrs by measuring fold change by Western blot analysis relative to control
[4] = molecular target: T1, Histone-lysine N-methyltransferase NSD3 (Homo sapiens); experiment: Induction of NSD3 degradation in human A549 cells assessed as reduction in H3K36me3 methylation at 7.5 uM incubated for 72 hrs by measuring fold change by Western blot analysis relative to control
[5] = molecular target: T1, Histone-lysine N-methyltransferase NSD3 (Homo sapiens); experiment: Induction of NSD3 degradation in human NCI-H1703 cells assessed as reduction in H3K36me3 methylation at 7.5 uM incubated for 72 hrs by measuring fold change by Western blot analysis relative to control
[6] = molecular target: T1, Histone-lysine N-methyltransferase NSD3 (Homo sapiens); experiment: Induction of NSD3 degradation in human A549 cells at 3 uM incubated for 72 hrs by measuring fold change by Western blot analysis relative to control
[7] = molecular target: T1, Histone-lysine N-methyltransferase NSD3 (Homo sapiens); experiment: Induction of NSD3 degradation in human A549 cells assessed as reduction in H3K36me2 methylation at 5 uM incubated for 72 hrs by measuring fold change by Western blot analysis relative to control
[8] = molecular target: T2, Histone-lysine N-methyltransferase NSD2 (Homo sapiens) (UniProt O96028); experiment: Induction of NSD2 degradation in human A549 cells at 3 uM incubated for 72 hrs by measuring fold change by Western blot analysis relative to control
T2 sequence (whole entry): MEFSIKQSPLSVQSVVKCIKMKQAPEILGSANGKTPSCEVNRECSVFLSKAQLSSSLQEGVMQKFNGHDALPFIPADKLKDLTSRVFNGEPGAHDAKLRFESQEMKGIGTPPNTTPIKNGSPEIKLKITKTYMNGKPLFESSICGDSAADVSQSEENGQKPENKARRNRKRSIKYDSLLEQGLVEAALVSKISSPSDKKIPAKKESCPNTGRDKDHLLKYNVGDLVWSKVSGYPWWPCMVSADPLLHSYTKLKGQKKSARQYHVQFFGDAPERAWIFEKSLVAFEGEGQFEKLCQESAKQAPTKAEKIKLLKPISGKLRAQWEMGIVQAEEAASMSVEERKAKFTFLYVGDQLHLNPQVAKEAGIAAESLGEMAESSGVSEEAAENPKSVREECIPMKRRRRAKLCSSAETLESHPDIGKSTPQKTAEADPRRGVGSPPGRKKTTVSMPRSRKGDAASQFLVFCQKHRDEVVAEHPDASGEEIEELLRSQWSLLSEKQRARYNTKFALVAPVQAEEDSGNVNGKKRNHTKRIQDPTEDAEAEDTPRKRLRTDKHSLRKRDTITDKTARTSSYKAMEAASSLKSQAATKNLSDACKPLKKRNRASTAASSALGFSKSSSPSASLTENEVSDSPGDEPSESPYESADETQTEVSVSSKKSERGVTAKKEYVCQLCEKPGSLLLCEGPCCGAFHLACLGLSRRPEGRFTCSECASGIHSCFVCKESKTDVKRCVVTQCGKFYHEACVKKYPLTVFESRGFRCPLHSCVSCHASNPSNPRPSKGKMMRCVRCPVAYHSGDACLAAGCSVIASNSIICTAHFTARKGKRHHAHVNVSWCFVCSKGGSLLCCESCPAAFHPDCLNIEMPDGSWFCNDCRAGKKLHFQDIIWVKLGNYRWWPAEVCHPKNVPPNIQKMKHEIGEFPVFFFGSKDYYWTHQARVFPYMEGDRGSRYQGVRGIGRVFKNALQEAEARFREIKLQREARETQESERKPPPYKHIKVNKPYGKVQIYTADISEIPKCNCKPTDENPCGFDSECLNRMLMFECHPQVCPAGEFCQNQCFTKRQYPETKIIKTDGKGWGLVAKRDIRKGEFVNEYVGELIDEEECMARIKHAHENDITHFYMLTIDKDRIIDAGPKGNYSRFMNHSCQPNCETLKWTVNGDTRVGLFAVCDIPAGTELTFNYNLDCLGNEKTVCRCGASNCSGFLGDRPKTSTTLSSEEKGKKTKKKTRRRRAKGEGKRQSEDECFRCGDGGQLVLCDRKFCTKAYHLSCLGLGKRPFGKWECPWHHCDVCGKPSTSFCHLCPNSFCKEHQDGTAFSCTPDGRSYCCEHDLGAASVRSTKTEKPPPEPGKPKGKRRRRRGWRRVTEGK

[9] = molecular target: T2, Histone-lysine N-methyltransferase NSD2 (Homo sapiens); experiment: Induction of NSD2 degradation in human A549 cells at 5 uM incubated for 72 hrs by measuring fold change by Western blot analysis relative to control
[10] = molecular target: T1, Histone-lysine N-methyltransferase NSD3 (Homo sapiens); experiment: Induction of NSD3 degradation in human A549 cells assessed as reduction in H3K36me3 methylation at 3 uM incubated for 72 hrs by measuring fold change by Western blot analysis relative to control
[11] = molecular target: Histone-lysine N-methyltransferase, H3 lysine-36 specific (Homo sapiens) (UniProt Q96L73); experiment: Induction of NSD1 degradation in human NCI-H1703 cells at 7.5 uM incubated for 72 hrs by measuring fold change by Western blot analysis relative to control
[12] = molecular target: T2, Histone-lysine N-methyltransferase NSD2 (Homo sapiens); experiment: Induction of NSD2 degradation in human NCI-H1703 cells at 7.5 uM incubated for 72 hrs by measuring fold change by Western blot analysis relative to control
[13] = molecular target: T1, Histone-lysine N-methyltransferase NSD3 (Homo sapiens); experiment: Induction of NSD3 degradation in human NCI-H1703 cells assessed as reduction in H3K36me2 methylation at 5 uM incubated for 72 hrs by measuring fold change by Western blot analysis relative to control
[14] = molecular target: Histone-lysine N-methyltransferase, H3 lysine-36 specific (Homo sapiens) (UniProt Q96L73); experiment: Induction of NSD1 degradation in human NCI-H1703 cells at 5 uM incubated for 72 hrs by measuring fold change by Western blot analysis relative to control
[15] = molecular target: T1, Histone-lysine N-methyltransferase NSD3 (Homo sapiens); experiment: Induction of NSD3 degradation in human NCI-H1703 cells at 5 uM incubated for 72 hrs by measuring fold change by Western blot analysis relative to control
[16] = molecular target: Histone-lysine N-methyltransferase, H3 lysine-36 specific (Homo sapiens) (UniProt Q96L73); experiment: Induction of NSD1 degradation in human NCI-H1703 cells at 3 uM incubated for 72 hrs by measuring fold change by Western blot analysis relative to control
[17] = molecular target: T1, Histone-lysine N-methyltransferase NSD3 (Homo sapiens); experiment: Induction of NSD3 degradation in human NCI-H1703 cells assessed as reduction in H3K36me2 methylation at 3 uM incubated for 72 hrs by measuring fold change by Western blot analysis relative to control
[18] = molecular target: T1, Histone-lysine N-methyltransferase NSD3 (Homo sapiens); experiment: Induction of NSD3 degradation in human NCI-H1703 cells assessed as reduction in H3K36me3 methylation at 3 uM incubated for 72 hrs by measuring fold change by Western blot analysis relative to control
[19] = molecular target: T1, Histone-lysine N-methyltransferase NSD3 (Homo sapiens); experiment: Induction of NSD3 degradation in human NCI-H1703 cells at 3 uM incubated for 72 hrs by measuring fold change by Western blot analysis relative to control
[20] = molecular target: Histone-lysine N-methyltransferase, H3 lysine-36 specific (Homo sapiens) (UniProt Q96L73); experiment: Induction of NSD1 degradation in human A549 cells at 7.5 uM incubated for 72 hrs by measuring fold change by Western blot analysis relative to control
[21] = molecular target: T1, Histone-lysine N-methyltransferase NSD3 (Homo sapiens); experiment: Induction of NSD3 degradation in human A549 cells assessed as reduction in H3K36me3 methylation at 5 uM incubated for 72 hrs by measuring fold change by Western blot analysis relative to control
[22] = molecular target: T1, Histone-lysine N-methyltransferase NSD3 (Homo sapiens); experiment: Induction of NSD3 degradation in human NCI-H1703 cells at 7.5 uM incubated for 72 hrs by measuring fold change by Western blot analysis relative to control
[23] = molecular target: T2, Histone-lysine N-methyltransferase NSD2 (Homo sapiens); experiment: Induction of NSD2 degradation in human NCI-H1703 cells at 3 uM incubated for 72 hrs by measuring fold change by Western blot analysis relative to control
[24] = molecular target: T1, Histone-lysine N-methyltransferase NSD3 (Homo sapiens); experiment: Induction of NSD3 degradation in human NCI-H1703 cells assessed as reduction in H3K36me2 methylation at 7.5 uM incubated for 72 hrs by measuring fold change by Western blot analysis relative to control
[25] = molecular target: T1, Histone-lysine N-methyltransferase NSD3 (Homo sapiens); experiment: Induction of NSD3 degradation in human A549 cells assessed as reduction in H3K36me2 methylation at 7.5 uM incubated for 72 hrs by measuring fold change by Western blot analysis relative to control
[26] = molecular target: Histone-lysine N-methyltransferase, H3 lysine-36 specific (Homo sapiens) (UniProt Q96L73); experiment: Induction of NSD1 degradation in human A549 cells at 3 uM incubated for 72 hrs by measuring fold change by Western blot analysis relative to control
[27] = molecular target: T1, Histone-lysine N-methyltransferase NSD3 (Homo sapiens); experiment: Induction of NSD3 degradation in human A549 cells assessed as reduction in H3K36me2 methylation at 3 uM incubated for 72 hrs by measuring fold change by Western blot analysis relative to control
[28] = molecular target: T2, Histone-lysine N-methyltransferase NSD2 (Homo sapiens); experiment: Induction of NSD2 degradation in human NCI-H1703 cells at 5 uM incubated for 72 hrs by measuring fold change by Western blot analysis relative to control
[29] = molecular target: T2, Histone-lysine N-methyltransferase NSD2 (Homo sapiens); experiment: Induction of NSD2 degradation in human A549 cells at 7.5 uM incubated for 72 hrs by measuring fold change by Western blot analysis relative to control
[30] = molecular target: T1, Histone-lysine N-methyltransferase NSD3 (Homo sapiens); experiment: Induction of NSD3 degradation in human A549 cells at 7.5 uM incubated for 72 hrs by measuring fold change by Western blot analysis relative to control

fold change (FC) [1]: 0.96
fold change (FC) [2]: 0.75
fold change (FC) [3]: 0.52
fold change (FC) [4]: 0.76
fold change (FC) [5]: 0.68
fold change (FC) [6]: 0.6
fold change (FC) [7]: 0.96
fold change (FC) [8]: 0.92
fold change (FC) [9]: 0.87
fold change (FC) [10]: 0.96
fold change (FC) [11]: 1.3
fold change (FC) [12]: 0.92
fold change (FC) [13]: 1.09
fold change (FC) [14]: 1.28
fold change (FC) [15]: 0.8
fold change (FC) [16]: 1
fold change (FC) [17]: 1.02
fold change (FC) [18]: 0.92
fold change (FC) [19]: 0.8
fold change (FC) [20]: 0.92
fold change (FC) [21]: 0.79
fold change (FC) [22]: 0.75
fold change (FC) [23]: 0.94
fold change (FC) [24]: 0.94
fold change (FC) [25]: 0.9
fold change (FC) [26]: 1.02
fold change (FC) [27]: 1.15
fold change (FC) [28]: 0.8
fold change (FC) [29]: 0.85
fold change (FC) [30]: 0.51
SMILES: Cc1cc(CNCCCCCCCCCCC(=O)N[C@H](C(=O)N2C[C@H](O)C[C@H]2C(=O)N[C@@H](C)c2ccc(-c3scnc3C)cc2)C(C)(C)C)cc(C)c1-c1ncn(C)c1-c1ccnc2cc(F)ccc12
